## scFv variants of Ab-14 (light chain) against a SARS-CoV-2 spike peptide

From the AlphaSeq antibody data of Li et al. 2023 (doi:10.1038/s41467-023-39022-2), copy in the FLAb collection.

All variants were tested on one target, the spike HR2 peptide PDVDLGDISGINAS (SARS-CoV-2).

Parent: Ab-14, a human scFv built as VH, a (GGGGS)3 linker, VL. Only the CDRs of the light chain vary.
VH: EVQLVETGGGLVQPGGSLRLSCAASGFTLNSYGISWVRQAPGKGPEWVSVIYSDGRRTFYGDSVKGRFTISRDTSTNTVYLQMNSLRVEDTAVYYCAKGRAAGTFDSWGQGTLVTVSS
VL: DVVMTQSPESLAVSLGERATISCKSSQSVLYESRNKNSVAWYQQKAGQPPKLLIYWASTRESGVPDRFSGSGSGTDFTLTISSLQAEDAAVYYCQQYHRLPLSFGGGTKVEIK

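The parent was found by panning a naive human phage display library on the peptide. This is the validation round: designs drawn from the data on random variants, tested in the same kind of assay. Several design methods are mixed in this list. Affinity was read by AlphaSeq, a pooled yeast mating assay with surface-displayed partners. Mating (16 h, 30 °C) was followed by selection of diploids and sequencing of their barcodes. Scores were corrected for input abundance and mapped to Kd with protein pairs of known affinity run in the same pool. Mating was done six times.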

Variants are written as CDR1, CDR2 and CDR3 of the light chain (limits as in the source). Parent: KSSQSVLYESRNKNSVA, WASTRES, QQYHRLPLS.
Variants here have more than six changes.
Kd is apparent (estimated from mating counts) and averaged on the log scale over replicates with a signal. Smaller is tighter.

With HIQDDIGGAKEQFDSVA, STEERSY, QQYYRLPLS the result was 1.7 nM (6 of 6 replicates).
With TISQLYNMGQFAINSVA, QASIRNS, QQYDRLPLM the result was 72 nM (6 of 6 replicates).
With TLSDLMHMESRNYNSVA, DLVKRES, QQYHRLPLS the result was 1.9 nM (6 of 6 replicates).
With IVSQLMMWGMHAKNSIA, EAVTRVN, QQYDRLPLF the result was 56 nM (4 of 6 replicates).
With KISMSVTFESRNKNSVA, ENSTRES, QSYDRLPLS the result was 3.7 µM (1 of 6 replicates).
With KQQQSAWMEERNFNSVA, HASTRES, QQYHRLPLS the result was 1.5 nM (6 of 6 replicates).
With KIYAATMLESTDKNSIA, DLTNRGN, QQYHRLPLS the result was 7.5 nM (6 of 6 replicates).
With MISQLWNMGTFAINSVA, QASIRNA, QQYDRLPLA the result was 19 nM (3 of 6 replicates).
With KLSQSYEYESRNSNSVA, NASQREH, QQYHRLPLR the result was 5.0 nM (6 of 6 replicates).
With RIQMGDFPGKTARNNIA, DGEEGYR, QQYVRLPLS the result was 2.2 nM (6 of 6 replicates).
With KLSNWYFDSYGNKESVA, ENEATSN, QQYSLLPLS the result was 43 nM (3 of 6 replicates).
With KFSQMANTFSVSMNAVA, EMSTRED, QQYNRLPLA the result was 2.3 nM (6 of 6 replicates).
With MISQVMNMLTREGNNVA, DLAEREK, QQYFRLPLS the result was 710 nM (2 of 6 replicates).
With VFPEHELMLESEIRSIA, NATKRME, QQYFRLPLV the result was 2.3 nM (6 of 6 replicates).
With KFEWSNPYESRNKNSVA, NASTRES, QQYWRLPLS the result was 3.2 nM (6 of 6 replicates).
With KMQQSQPYESRMSNAVA, NASYRMS, QQYHRLPLS the result was 2.9 nM (6 of 6 replicates).
With VLSDTIENMASEADNIA, DTTETSY, QQYYRLPLS the result was 190 pM (6 of 6 replicates).
With KVSQSNGGESRMKNSVA, HASQRES, QQYHRLPLS the result was 110 nM (4 of 6 replicates).
With KWSQSVLMESMLSNSVA, NASQRES, QQYHRLPLS the result was 3.1 nM (6 of 6 replicates).
With KVSESQDYESRNFNSVA, NASTREE, QQYHRLPLS the result was 2.4 nM (6 of 6 replicates).
With KVSIEVLMGDRNKNSVA, DASTRES, QQYHRLPLS the result was 730 pM (6 of 6 replicates).
With KLTSLTGTEKVRGNNVA, EMETRER, QQYNRLPLA the result was 3.9 nM (6 of 6 replicates).
With KFEQLDGGEQRNKNSVA, NASQRED, QQYHRLPLS the result was 840 pM (6 of 6 replicates).
With TISHSTDLESVHKNSIA, DLMTRES, QQYDRLPLS the result was 5.7 nM (6 of 6 replicates).
With KISQMARVGSTHSNSIA, EEAKRAD, QQYHRLPLA the result was 73 nM (5 of 6 replicates).
With RMDFQDLMWQYDANNIA, GATLSIE, QQYGRLPLT the result was 6.3 nM (6 of 6 replicates).
With TIGAATFEESRNKNSVA, EMSLREN, QSYNRLPLS the result was 8.7 nM (6 of 6 replicates).
With KVSMFMRGLMSRQDSIA, DNVTRGN, QQYDRLPLS the result was 24 nM (6 of 6 replicates).
With TISNVMNTLTRLGNNVA, DLAERED, QQYFRLPLS the result was 5.6 nM (6 of 6 replicates).
With KISMSVDYMSATHSSVA, QTSQREE, QQYHRLPLS the result was 3.4 nM (6 of 6 replicates).
With KFSQQVLYESRAMNSVA, NASQRLS, QQYHRLPLS the result was 790 pM (6 of 6 replicates).
With HYFQQMRDDLEENNPIA, NASIRES, QQYGRLPLT the result was 19 nM (1 of 6 replicates).
With QIAEQNMHVGIGANAIA, NATVRSA, QQYLRLPLM the result was 3.1 nM (6 of 6 replicates).
With TISQSAQTESHNKNSVA, DLSVRGS, QQYHRLPLS the result was 2.3 nM (6 of 6 replicates).
With KLSQVTHSEHRNKNSIA, EMVTREV, QQYDRLPLS the result was 20 nM (6 of 6 replicates).
With KLEGQHLYESRNANSVA, NASTRMS, QQYKRLPLS the result was 320 pM (6 of 6 replicates).
With HMSMLTLQGMRHRNSVA, QMTTREN, QQYDRLPLS the result was 7.8 nM (6 of 6 replicates).
With KIEISNSWHLRGTSAVA, QASTRAA, QQYQRLPLL the result was 8.0 nM (6 of 6 replicates).
With TIAGLANYESTNKNSVA, ELTMRGQ, QQYERLPLS the result was 2.6 nM (6 of 6 replicates).
With NISTQIPEFEMWDNNIA, GATLRPT, QHYARLPLS the result was 130 nM (6 of 6 replicates).

Top 2 of the variants detected in all replicates, tightest first:

CDR-L1,CDR-L2,CDR-L3,Kd,replicates with signal
VLSDTIENMASEADNIA,DTTETSY,QQYYRLPLS,190 pM,6/6
KLEGQHLYESRNANSVA,NASTRMS,QQYKRLPLS,320 pM,6/6

Of ten entries with the parent sequence, four were seen in most replicates (averages 2.2 nM to 240 nM), three in one and three in none, so single entries are noisy.
The authors' rule: three or more of the six replicates give a measured affinity, fewer mean a poor binder.
As a blank, each scFv also met three strains without target: over all light chain designs, 4% of these pairings were detected, typically at 430 nM and seldom below 38 nM.
Values of this round are not directly comparable with the first-round values of the same sequences.